Experimental findings from article PMC5679024 (ACS chemical neuroscience, 2017) are described below.

Amino acid sequences for entries named in this document (tags omitted).
UniProt P56450, whole entry: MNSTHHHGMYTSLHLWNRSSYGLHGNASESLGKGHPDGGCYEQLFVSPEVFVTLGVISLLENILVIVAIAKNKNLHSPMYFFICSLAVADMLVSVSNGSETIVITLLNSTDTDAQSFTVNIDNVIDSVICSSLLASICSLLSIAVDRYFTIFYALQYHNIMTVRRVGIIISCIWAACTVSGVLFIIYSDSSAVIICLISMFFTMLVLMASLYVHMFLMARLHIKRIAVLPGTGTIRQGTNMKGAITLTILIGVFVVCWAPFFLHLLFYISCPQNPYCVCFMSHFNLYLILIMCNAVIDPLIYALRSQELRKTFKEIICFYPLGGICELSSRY

What is called IC50 is the concentration that gives 50% inhibition.

In test [1] the target is mouse melanocortin 4 receptor, wildtype mMC4R, stably expressed on HEK293 cells (mouse) (UniProt P56450).
The target is the same in test [2]. Put plainly: radioligand binding.

“CJL-1-14, Ac-His-DPhe-Arg-Trp-NH2 (peptide)” showed an Agonist cAMP Based Alpha Screen Results EC50 (nM), stable mMC4R cells in test [1] of 8.5 nM. The substance also registered an IC50 in test [2] of 0.13 µM.
